Apparent affinities of Ab-91 variants for a coronavirus HR2 peptide

Source: Engelhart et al. 2022 (doi:10.1038/s41597-022-01779-4), MIT Lincoln Laboratory and A-Alpha Bio; data file from the FLAb repository.

Target: peptide PDVDLGDISGINAS, taken from heptad repeat 2 (HR2) of SARS-CoV-2 spike.

Each scFv is VL, three GGGGS repeats, VH, as in the parent Ab-91, and differs from it in the CDRs of the heavy chain only.
VL: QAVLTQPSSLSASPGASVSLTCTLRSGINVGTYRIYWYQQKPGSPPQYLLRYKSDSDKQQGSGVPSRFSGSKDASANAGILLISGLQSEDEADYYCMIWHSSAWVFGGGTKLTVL
VH: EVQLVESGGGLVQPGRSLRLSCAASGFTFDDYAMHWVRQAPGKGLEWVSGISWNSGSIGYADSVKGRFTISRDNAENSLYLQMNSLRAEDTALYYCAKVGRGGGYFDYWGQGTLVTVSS

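AAYL51 was designed without a model: most single CDR substitutions and a random sample of double and triple ones. In AlphaSeq, yeast of one mating type display the scFv and yeast of the other type display the target. Mating (16 h, 30 °C) was followed by selection of diploids and sequencing of their barcodes. Read counts were normalised to the haploid input and turned into Kd by a linear fit to BCL2-family pairs of known affinity, for each replicate. Mating was done three times.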

Variants are written as CDR1, CDR2 and CDR3 of the heavy chain (limits as in the source). Parent: GFTFDDYAMH, GISWNSGSIGYADSVK, VGRGGGYFDY.
Numbers give log10(Kd / nM), so 0 is 1 nM and 3 is 1 µM. Smaller is tighter.
"ND" means that the variant was in the library but no mating with the target was seen in that replicate; the authors take this as a sign of poor binding, and no number exists.
Three control strains display no target. For library AAYL51, 21% of the pairings with them gave a signal, with a median of 4.54 and one signal in twenty below 3.26, so weak values seen in few replicates may be background. For each scFv, signals with the empty controls are counted beside the result.
In this assay the parent's reference entry averaged 1.86; its copy inside this library read 0.88.

The variant GFTFDDYAMH / SNSWNSGSIGYADSVK / VGRGGGHFDY showed 3.97, ND, ND (controls 4 of 9).
The variant AFTFDDYACH / GISWNSGSIGYADSVK / VGRNGGYFDY showed ND, ND, ND (controls 1 of 9).
The variant GFTFFDPAMH / GISWNSGSIGYADSVK / VGRGGDYFDY showed ND, ND, ND (controls 1 of 9).
The variant GFTFDDPAMH / GISWNWGSIAYADSVK / VGRGGGYFDY showed ND, ND, ND (controls 2 of 9).
The variant GATFDDYAMH / GISWNSGSIGYKDSVK / VDRGGGYFDY showed ND, ND, ND (controls 2 of 9).
The variant GFTFDDYAMH / GISWNSGSIGYADSVK / VVRGGGYHDY showed 5.53, ND, ND (controls 3 of 9).
The variant GFTFDDYIMH / GISWNSGSIGYADSVK / VGRGGGYVDY showed ND, ND, 3.30 (controls 1 of 9).
The variant GVTFDDCAMH / GISWNSGSIGYADSVK / VMRGGGYFDY showed 4.28, ND, 4.50 (controls 1 of 9).
The variant GFTFDDYPMH / GISWNSGSIGYADSVK / VGRDGGYFDM showed ND, 3.05, ND (controls 0 of 9).
The variant GFCFDDYAMH / GISWNPGSIGYADKVK / VGRGGGYFDY showed 4.38, ND, ND (controls 5 of 9).
The variant GFTSDCYAMH / GDSWNSGSIGYADSVK / VGRGGGYFDY showed ND, ND, ND (controls 2 of 9).
The variant GNTFDDYAMH / GIYWNSGSIGYADSVK / VGVGGGYFDY showed 3.74, ND, ND (controls 0 of 9).
The variant GFTFDHYAMH / GISWNTGSIGYADSVK / VGRWGGYFDY showed ND, ND, ND (controls 0 of 9).
The variant GFTFDDRAMH / GISWNSGSIGYDDSVK / VGRGGGQFDY showed ND, ND, ND (controls 2 of 9).
The variant GVTFADYAMH / GISWNSGSIGYEDSVK / VGRGGGYFDY showed 2.27, 2.19, 1.54 (controls 1 of 9).
The variant GFTFDDYKMH / GISCNSGSIGYAASVK / VGRGGGYFDY showed ND, ND, ND (controls 0 of 9).
The variant GATFDDYAMQ / GISWNSGSIGYADKVK / VGRGGGYFDY showed ND, ND, ND (controls 0 of 9).
The variant GMTFDDYAMH / GISWNSGSIGYAFSVK / VGRGGGYFFY showed ND, ND, ND (controls 0 of 9).
The variant GFTFDDYAMH / GIHWNSSSIGYADSVK / VGRSGGYFDY showed 4.53, ND, ND (controls 1 of 9).
The variant GFTFDDYAMH / GISWNSGSIGYRLSVK / VGRKGGYFDY showed ND, ND, ND (controls 4 of 9).
The variant GFTFRDYAMH / GISWNSGSIGYADSVK / VGRGGVYFDY showed ND, ND, ND (controls 0 of 9).
The variant GFTFDMYAMH / GISWNSGSGGYADSVK / VGRGCGYFDY showed ND, 5.80, ND (controls 1 of 9).
The variant GDTFDDYAMH / GISVNSGPIGYADSVK / VGRGGGYFDY showed ND, 6.47, 5.37 (controls 2 of 9).
The variant GFTFDDYAMH / GISWFSGEIGYADSVK / VGRGGGYFDW showed ND, ND, ND (controls 3 of 9).
The variant GFTFDEYAMY / GIWWNSGSIGYADSVK / VGRGGGYFDY showed ND, ND, ND (controls 0 of 9).
The variant GFTFDDYAMQ / GISWNDGLIGYADSVK / VGRGGGYFDY showed 5.50, 4.84, 5.78 (controls 5 of 9).
The variant GFTFDDYSMH / GISWNSGSIGYADSVK / VGRGGPYFDY showed 2.51, 2.73, 2.54 (controls 4 of 9).
The variant GFTFDDYAMH / GISWYSGSWGYADSVY / VGRGGGYFDY showed ND, ND, ND (controls 0 of 9).
The variant GFTFDDYAMH / GISWNSGSIGYADSVK / GGRGGGYFDY showed 1.58, 1.73, 0.85 (controls 0 of 9).
The variant GFTFDDYTMF / GISWNSGSIGYADSVK / SGRGGGYFDY showed ND, ND, ND (controls 0 of 9).
The variant GFTFADYAMH / GISWNSGSNGYADSGK / VGRGGGYFDY showed 3.43, ND, 3.55 (controls 1 of 9).
The variant GFTFDDYAMH / GISWNSGFIGYADSVK / VGRGGGYFSY showed 4.59, ND, ND (controls 2 of 9).
The variant GFTFDDYAMH / GISWNSGSIGYVDSVI / VGRGGGIFDY showed 4.88, ND, 5.20 (controls 6 of 9).
The variant YFTFDDYEMH / GISWNCGSIGYADSVK / VGRGGGYFDY showed 4.90, 3.42, 5.02 (controls 3 of 9).
The variant GFTFKDYAMH / GISWNSGSIGYADSVK / LGRGGGYFFY showed ND, 3.62, ND (controls 0 of 9).
The variant GFTFDDYAMH / GISWNSGWIGYADSVK / DGRGGGYFDI showed ND, ND, ND (controls 2 of 9).
The variant GFTFDSYAMH / GISWNSISIGYADSEK / VGRGGGYFDY showed 4.39, 5.81, ND (controls 4 of 9).
The variant GFTFDDYAMH / GTSWNSGSGGYAASVK / VGRGGGYFDY showed ND, ND, ND (controls 0 of 9).
The variant NFTFDDYAWH / GISWNSGSIGYADSVH / VGRGGGYFDY showed 4.06, ND, ND (controls 0 of 9).
The variant GFTFDDYAMH / GISWNHGSIGSADSVK / VGRGGGYFNY showed 4.28, 6.51, 5.41 (controls 5 of 9).
The variant GSTFDDYAMH / GISWNSGKIGNADSVK / VGRGGGYFDY showed ND, ND, ND (controls 2 of 9).
The variant GFTFDDLAVV / GISWNSGSIGYADSVK / VGRGGGYFDY showed 5.11, 6.74, ND (controls 6 of 9).
The variant GFTFDDYAMH / LISWNSGSIGYADEVK / VGRGGGYFDY showed ND, ND, ND (controls 0 of 9).

For reference, 6 entries of the list once more:

GDTFDDYAMH / GISVNSGPIGYADSVK / VGRGGGYFDY: ND, 6.47, 5.37 (controls 2 of 9).
GFTFDDYAMH / GISWNSGSIGYADSVK / GGRGGGYFDY: 1.58, 1.73, 0.85 (controls 0 of 9).
GFTFDDYAMH / GISWYSGSWGYADSVY / VGRGGGYFDY: ND, ND, ND (controls 0 of 9).
GFTFADYAMH / GISWNSGSNGYADSGK / VGRGGGYFDY: 3.43, ND, 3.55 (controls 1 of 9).
GFTFDDYAMH / GISWNSGFIGYADSVK / VGRGGGYFSY: 4.59, ND, ND (controls 2 of 9).
GFTFDDYTMF / GISWNSGSIGYADSVK / SGRGGGYFDY: ND, ND, ND (controls 0 of 9).